This is an account of results in ChEMBL document CHEMBL3872219, “Computational and synthetic approaches for developing Lavendustin B derivatives as allosteric inhibitors of HIV-1 integrase” (Eur J Med Chem, 2016).

The experiment can be described thus: Ratio of IC50 for FLAG or His-tagged HIV1 integrase 3' processing activity to IC50 for His-tagged LEDGF/p75 (unknown origin) dependent FLAG or His-tagged HIV1 integrase activity.

Consider `O=C(O)c1cc(N(Cc2ccccc2Cl)Cc2ccccc2Cl)ccc1O`, for which the Ratio IC50 was determined as 8.
